Measurements published in ChEMBL document CHEMBL1134881, “3-Pyrroline containing arylacetamides: a novel series of remarkably selective kappa-agonists” (2002).

Test system: Mus musculus
Test: Effective intraperitoneal dose required for the analgesic activity in in vitro mouse hot plate assay

SMILES | ED50
CC(C)[C@@H](CN1CC=CC1)N(C)C(=O)Cc1ccc(F)cc1 | 1.16 mg/kg
CC(C)[C@@H](CN1CC=CC1)N(C)C(=O)Cc1ccc(Br)cc1 | 0.18 mg/kg
COc1ccc(CC(=O)N(C)[C@H](CN2CC=CC2)C(C)C)cc1 | 2.57 mg/kg
CSCC[C@@H](CN1CC=CC1)N(C)C(=O)Cc1ccc(F)cc1 | ≥ 10 mg/kg
CC(C)[C@@H](CN1CC=CC1)N(C)C(=O)Cc1ccc(Cl)c(Cl)c1 | 0.023 mg/kg
CSCC[C@@H](CN1CC=CC1)N(C)C(=O)Cc1ccc(Br)cc1 | 2.36 mg/kg
CSCC[C@@H](CN1CC=CC1)N(C)C(=O)Cc1ccc(Cl)c(Cl)c1 | 0.18 mg/kg
CSCC[C@@H](CN1CC=CC1)N(C)C(=O)Cc1ccc(Cl)cc1 | 2.13 mg/kg
CSCC[C@@H](CN1CC=CC1)N(C)C(=O)Cc1ccc([N+](=O)[O-])cc1 | 2 mg/kg
CC(C)[C@@H](CN1CC=CC1)N(C)C(=O)Cc1ccc([N+](=O)[O-])cc1 | 0.17 mg/kg
COc1ccc(CC(=O)N(C)[C@@H](CCSC)CN2CC=CC2)cc1 | > 10 mg/kg
CC(C)[C@@H](CN1CC=CC1)N(C)C(=O)Cc1ccc(Cl)cc1 | 0.25 mg/kg
